Assay: Autoradiography of the prostate after transurethral catheter injection of tritium labeled agent
[1] = 12 hours after transurethral injection of 100 uCi 3H-testosterone
[2] = 48 hours after transurethral injection of 100 uCi 3H-testosterone

Substance: 3H-testosterone [tritium labeled testosterone]
- free (extra-nuclear) activity in prostate [1]: periphery of the gland. Practically no free (extra-nuclear)
- glandular nuclear activity (autoradiographic labeling) in prostate [1]: Strong, selective glandular (but not stromal or muscular)
- extra-nuclear labeling in prostate [2]: covers the whole prostate, minimal scattered extra-nuclear
- glandular nuclear activity (autoradiographic labeling) in prostate [2]: Still strong, although somewhat less activity over the

Reference: patent US7837670B2, “Methods and devices for delivering therapeutic agents into the prostate gland” (Boston Scientific Scimed, Inc., priority 2005, dated 2010)
